Data taken from US20090092553A1, “MONOCARBOXYLATE TRANSPORTERS EXPRESSED IN CANCER CELLS” (Xenoport,Inc., priority 2003, published 2009).
Only a part of the results on these compounds is given; other tests are left out.

System: PC3 human prostate cancer epithelial cell line
Assay: Alamar blue cytotoxicity assay, PC3 cells
Conditions: PC3, 48 hour treatment

O=C(O)CON(CCCl)CCCl
GI50: 15 µM
